Experiments:
[1] = target: androgen receptor (AR) (Homo sapiens, UniProt P10275, T878A); assay: Androgen-induced PSA (6.1 kb)-luciferase reporter assay in LNCaP cells; assay type: cell-based; details: read-out: PSA-Luc IC50 Range; LNCaP cells transfected with PSA (6.1 kb)-luciferase reporter, R1881 1 nM, 24 h
[2] = Microsomal stability assay, mouse liver microsomes; details: 1 μM compound, 0.5 mg/mL protein, 37° C.
[3] = Microsomal stability assay, human liver microsomes; details: 1 μM compound, 0.5 mg/mL protein, 37° C.
[4] = Hepatocyte stability assay, mouse hepatocytes; details: 1 μM compound, 0.5 million cells/mL, 37° C.

Protein sequences, listed by entry. Tags and fused reporters are not part of them.
UniProt P10275, whole entry T878A: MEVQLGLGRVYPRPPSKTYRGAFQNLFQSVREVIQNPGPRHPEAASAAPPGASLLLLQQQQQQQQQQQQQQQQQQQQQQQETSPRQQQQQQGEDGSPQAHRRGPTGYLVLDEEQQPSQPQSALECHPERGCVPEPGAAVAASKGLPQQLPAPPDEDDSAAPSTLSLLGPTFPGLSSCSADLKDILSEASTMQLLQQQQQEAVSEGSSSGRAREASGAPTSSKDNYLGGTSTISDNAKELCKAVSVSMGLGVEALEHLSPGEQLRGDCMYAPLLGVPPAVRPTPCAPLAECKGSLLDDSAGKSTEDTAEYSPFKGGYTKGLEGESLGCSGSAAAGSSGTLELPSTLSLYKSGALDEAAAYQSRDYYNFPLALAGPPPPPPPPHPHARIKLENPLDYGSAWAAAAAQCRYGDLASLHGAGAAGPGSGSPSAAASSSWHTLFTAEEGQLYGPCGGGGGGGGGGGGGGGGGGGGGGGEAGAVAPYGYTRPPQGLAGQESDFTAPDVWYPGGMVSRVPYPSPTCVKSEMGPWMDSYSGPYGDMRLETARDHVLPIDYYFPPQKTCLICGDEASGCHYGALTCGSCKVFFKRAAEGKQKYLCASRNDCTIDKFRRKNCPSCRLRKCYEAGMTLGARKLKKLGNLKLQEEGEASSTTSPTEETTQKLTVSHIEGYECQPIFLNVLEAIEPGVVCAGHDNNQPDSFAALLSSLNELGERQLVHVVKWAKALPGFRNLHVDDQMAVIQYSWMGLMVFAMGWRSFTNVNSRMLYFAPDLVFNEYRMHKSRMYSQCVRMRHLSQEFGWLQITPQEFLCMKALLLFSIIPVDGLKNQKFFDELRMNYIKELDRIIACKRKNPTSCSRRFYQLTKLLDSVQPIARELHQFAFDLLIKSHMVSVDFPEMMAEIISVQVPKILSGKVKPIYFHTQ

For `CC(C)(c1ccc(OCc2ccnc(NS(C)(=O)=O)n2)cc1)c1cc(F)c(OCCCl)c(F)c1`, the IC50 [1] was 0.5 to 2 µM, the “MLM +30/− NADPH: Clint (μL/min/mg protein)” value [2] was “*** (*** represent Cl < 12 μL/min/mg protein)” and the “HLM +/− NADPH: Clint (μL/min/mg protein)” value [3] was “*** (*** represent Cl < 12 μL/min/mg protein)”. For the same molecule, the “MH +/− NADPH: Clint (μL/min/million cells)” value [4] was “*** (*** represent Cl < 4 cells μL/min/million cells)”.
